Earlier results on 1 substance are cited in patent US20040210280A1, “Plaster-type chip systems for thermodynamic control of topical dermal and transdermal systems” (BIONICS PHARMA GmbH, priority 2002, published 2004).

The conditions of the data set: healthy persons, after subcutaneous injection, relation to skin temperature.

As for insulin, the “magnitude of the insulin concentration in the serum” value is “significantly statistically correlated with the skin temperature”.
